Apparent affinities of Ab-14 variants for a coronavirus HR2 peptide

The target is the same throughout: PDVDLGDISGINAS, from the HR2 region of SARS-CoV-2 spike.

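This is the validation round: designs drawn from the data on random variants, tested in the same kind of assay. Their group label is 14L_GP_HC (GP: Gaussian process model; HC: hill climbing; a sequence that several methods proposed may carry one label only). Affinity was read by AlphaSeq, a pooled yeast mating assay with surface-displayed partners. Pairs that bind mate more often; barcode pairs of the diploids are counted by sequencing. The ratio of observed to expected reads was calibrated, replicate by replicate, on BCL2-family standards whose Kd was known from biolayer interferometry. Each pool was mated in six replicate cultures.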

Parent: Ab-14, a human scFv built as VH, a (GGGGS)3 linker, VL. Only the CDRs of the light chain vary.
VH: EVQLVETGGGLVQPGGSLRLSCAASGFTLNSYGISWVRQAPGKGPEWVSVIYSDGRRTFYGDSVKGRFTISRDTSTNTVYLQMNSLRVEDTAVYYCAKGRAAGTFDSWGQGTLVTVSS
VL: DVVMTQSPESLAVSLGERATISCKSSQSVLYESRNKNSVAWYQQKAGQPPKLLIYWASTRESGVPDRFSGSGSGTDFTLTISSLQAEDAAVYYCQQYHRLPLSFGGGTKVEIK

Substitutions are numbered in sequence along the VL above, starting at 1 (not Kabat).
Affinities are written as log10 Kd with Kd in nM; a lower number is a better binder.
An entry "n.d." has no value in the source: the pair was not observed among the diploids in that replicate. This suggests poor binding but is not conclusive.
Nonspecific signal, from three strains lacking the peptide, appeared in 4% of pairings of all light chain designs, centred on 2.64 (5% of these signals below 1.59); values are not corrected for it. The control count says in how many pairings with the empty strains this scFv gave a signal, with their mean in brackets.

changes	replicates, log10 nM	empty controls
S25L/V29E/E32D/R34Q/W56N	0.07 0.21 -0.07 -0.07 0.03 0.03	0 of 18
Q27W/R34L/W56H/S62D	0.40 -0.17 0.80 0.05 -0.04 0.25	0 of 18
S25H/S28A/V29F/W56D/S58N	0.40 0.56 0.16 -0.10 0.47 0.53	0 of 18
V29F/W56G/Q96S/P101T	n.d. n.d. n.d. n.d. n.d. n.d.	0 of 18
Q27T/V29Y/L30D/K36E/W56E/S62Q	0.14 0.16 -0.12 -0.03 -0.18 0.15	0 of 18
S25L/V29F/W56E/Q96A	0.89 0.59 0.58 0.61 0.73 0.78	2 of 18 (3.66)
V29E/W56D/H98W	-0.01 -0.33 -0.17 -0.36 0.00 -0.38	0 of 18
V29E/Y31M/W56D/H98W	-0.38 -0.14 -0.24 -0.52 -0.43 0.22	2 of 18 (2.25)
S26G/S28G/W56G/S103Y	0.69 0.57 0.40 0.59 0.63 1.15	1 of 18 (2.51)
Q27I/V29Y/W56Q	0.22 -0.26 -0.27 -0.21 -0.08 0.16	0 of 18
S25M/S26E/S28G/W56G/T59L	-0.04 0.18 -0.08 -0.23 0.06 0.33	0 of 18
S25T/S26E/S28G/W56G/T59V	-0.12 -0.39 -0.54 -0.36 -0.58 -0.46	0 of 18
S26D/S28G/W56G	-0.18 -0.31 -0.30 -0.16 -0.14 -0.13	1 of 18 (2.38)
S26G/S28G/L30D/K36W/W56G	-0.21 -0.09 -0.09 -0.29 -0.21 -0.20	0 of 18
S25Q/S28E/V29K/S38N/W56G	-0.26 -0.12 -0.43 -0.45 -0.45 -0.10	2 of 18 (3.24)
Q27I/V29E/R34M/W56L/A57G	1.44 1.57 2.40 1.44 1.06 1.72	1 of 18 (1.97)
S25L/S26P/N35D/W56H/S62D	0.11 -0.08 0.03 -0.15 -0.14 -0.12	0 of 18
S26G/S28G/W56G/A57S	0.41 -0.04 0.15 0.15 0.03 0.05	0 of 18
K24H/Q27P/V29E/K36G/W56N	-0.22 -0.22 0.12 -0.09 -0.09 -0.05	1 of 18 (2.51)
Y31G/S33Q/W56D/R99E	0.95 0.87 0.64 0.48 0.58 0.96	1 of 18 (2.81)
S26G/S28G/L30D/S38H/W56G	0.34 0.14 0.14 0.12 0.11 0.18	5 of 18 (3.02)
K24H/Q27P/L30H/S38N/W56N	-0.46 -0.65 -0.87 -0.74 -0.73 -0.46	0 of 18
S25V/S28E/V29N/W56D	-0.25 -0.23 -0.47 -0.52 -0.41 -0.40	0 of 18
S25L/S26P/V29T/K36P/S62D	0.16 0.38 0.05 0.54 -0.12 0.62	3 of 18 (3.02)
S25Q/S33N/W56D	-0.02 -0.28 -0.51 -0.56 -0.52 -0.19	3 of 18 (2.87)
S25M/S26E/S28G/N37G/W56G/T59Q	0.17 0.02 -0.18 -0.33 -0.06 0.04	0 of 18
S26Q/V29Y/L30E/W56H/S62D	-0.16 0.12 -0.15 -0.32 -0.06 -0.10	0 of 18
S26Y/Q27I/V29G/W56E	0.52 0.30 0.27 0.26 0.23 0.40	2 of 18 (2.50)
L30K/Y31M/W56D	1.54 0.34 0.49 0.71 2.98 1.53	1 of 18 (1.71)
S25F/V29K/N35W/W56G/T59Q	0.95 0.75 1.14 0.59 0.75 0.86	0 of 18
S25L/S26R/S28Q/V29T/S33T/W56M/S62E	0.64 1.59 0.43 1.62 0.48 1.29	0 of 18
Y31F/S33D/W56D	0.12 0.30 0.24 0.06 -0.05 0.31	2 of 18 (2.44)
S26G/S28G/V29G/K36W/W56G	0.08 -0.20 0.03 -0.38 -0.10 0.07	2 of 18 (1.93)

The range of this assay differs from that of the first round, and the authors advise against merging the two.
In the paper, a design with two or fewer of six values counts as a poor binder.

Reference: Li et al. 2023, doi:10.1038/s41467-023-39022-2. File: FLAb, binding data.